The values below come from patent publication US20240360179A1, “STAPLED PEPTIDES AND METHODS THEREOF” (FOG PHARMACEUTICALS, INC., priority 2021, published 2024).

Sequences of proteins named here, by UniProt entry; tags and fusion partners are left off.
UniProt P35222, whole entry: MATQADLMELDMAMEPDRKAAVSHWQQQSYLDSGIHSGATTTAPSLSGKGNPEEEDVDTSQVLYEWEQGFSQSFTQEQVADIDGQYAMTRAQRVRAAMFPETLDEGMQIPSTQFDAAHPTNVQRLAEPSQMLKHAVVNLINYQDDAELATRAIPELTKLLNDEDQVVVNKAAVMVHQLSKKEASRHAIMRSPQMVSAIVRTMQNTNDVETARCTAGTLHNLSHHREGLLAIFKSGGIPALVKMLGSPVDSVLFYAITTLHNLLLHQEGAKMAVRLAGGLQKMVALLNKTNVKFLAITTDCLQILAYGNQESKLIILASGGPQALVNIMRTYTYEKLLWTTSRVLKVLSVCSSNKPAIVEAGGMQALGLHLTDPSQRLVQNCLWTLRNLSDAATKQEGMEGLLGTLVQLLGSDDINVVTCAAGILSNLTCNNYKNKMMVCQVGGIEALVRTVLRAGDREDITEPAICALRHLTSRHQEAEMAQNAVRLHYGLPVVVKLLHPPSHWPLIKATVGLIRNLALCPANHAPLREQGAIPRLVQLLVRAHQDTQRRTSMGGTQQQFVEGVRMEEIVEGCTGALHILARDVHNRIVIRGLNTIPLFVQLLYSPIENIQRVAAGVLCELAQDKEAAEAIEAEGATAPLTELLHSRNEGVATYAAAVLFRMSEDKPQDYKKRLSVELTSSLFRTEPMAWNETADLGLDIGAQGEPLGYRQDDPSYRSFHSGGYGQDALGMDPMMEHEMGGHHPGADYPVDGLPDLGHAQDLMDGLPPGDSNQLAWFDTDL

The target in this experiment is T1, full-length B-Catenin (Uniprot ID P35222) (Homo sapiens, UniProt P35222).
T1 construct: 10 nM full-length B-Catenin (Uniprot ID P35222)
The experiment is classed as binding. The conditions noted are these: competition fluorescence polarization; read-out: beta-Catenin FP IC50.
As usually defined, the IC50 is the concentration at which inhibition is half-maximal. “Ac-PL3-Asp-Npg-B5-Asp-3COOHF-Aib-Ala-Phe-Lys*3-PyrS2-3Thi-BztA-GlnR*3-Ala-Ala-Arg-Ala-Ala-Ala-Ala-NH2 [I-1155]”: the IC50 was less than 50 nM.
Under “Ac-PL3-Asp-Npg-B5-Asp-3COOHF-Aib-Ala-Phe-[C3]Cys-PyrS2-3Thi-BztA-aMeC-Ala-NH2 [I-1388]” stands 50 to 200 nM; under “Ac-PL3-Asp-Npg-B5-Asp-3COOHF-Aib-Ala-Phe-Lys*3-PyrS2-Phe-7ClBztA-GlnR*3-Ala-NH2 [I-1249]”, less than 50 nM; under “Ac-PL3-Asp-Npg-B5-Asp-3COOHF-Aib-Ala-Phe-[mPyr]Cys-PyrS2-3Thi-BztA-aMeC-Ala-NH2 [I-1387]”, 50 to 200 nM.
Under “Ac-PL3-Ser-DipA-B5-Asp-3COOHF-nLeu-Ala-Phe-Lys*3-PyrS2-3Thi-BztA-GlnR*3-NH2 [I-1681]” stands less than 50 nM; under “Ac-PL3-Asp-Npg-B5-Asp-3COOHF-Aib-Ala-Phe-[C3]hCys-PyrS2-3Thi-BztA-aMeC-Ala-NH2 [I-1427]”, 50 to 200 nM; under “Ac-PL3-Asp-Leu-B5-Asp-3COOHF-GlnR*3-Ala-Phe-Leu-PyrS2-Phe-34ClF-GlnPipAz*3-NH2 [I-1905]”, less than 50 nM.
Consider “Ac-PL3-Asp-Npg-B5-Asp-TfeGA-Aib-Ala-Phe-Lys*3-PyrS2-Phe-BztA-GlnR*3-Leu-Ser-NH2 [I-880]”, for which the IC50 is less than 50 nM.
With “Ac-PL3-Asp-DipA-B5-Asp-3COOHF-Val-Ala-Phe-Lys*3-PyrS2-Phe-BztA-GlnR*3-NH2 [I-1852]” the figure was less than 50 nM.
With “Ac-PL3-Asp-Ile-B5-Asp-3COOHF-Aib-Ala-Phe-hGlnR*3-PyrS2-Phe-34ClF-Lys*3-NH2 [I-1372]” the figure was less than 50 nM; with “Ac-PL3-Asp-Npg-B5-Asp-3COOHF-Ala-Ala-Phe-Lys*3-SPip2-3Thi-BztA-GlnR*3-Ala-NH2 [I-780]”, less than 50 nM; with “Ac-PL3-Asp-DipA-B5-Asp-3COOHF-Cbg-Ala-Phe-Lys*3-PyrS2-3Thi-BztA-GlnR*3-Ala-NH2 [I-858]”, less than 50 nM.
Under “Ac-Pro-S5-Leu-Asp-DipA-B5-Asp-3COOHF-Aib-Ala-Phe-Lys*3-PyrS1-Phe-34ClF-GlnR*3-NH2 [I-1893]” stands less than 50 nM.
For the substance “Ac-PL3-Asp-Ile-B5-Asp-3COOHF-Aib-Ala-Phe-AsnS3APyr*3-PyrS2-Phe-34ClF-AsnR*3-NH2 [I-1424]”, the IC50 is less than 50 nM.
With “Ac-PL3-Asp-Npg-B5-Asp-bMe2Asp-Aib-Ala-Phe-Lys*3-PyrS2-Phe-34ClF-GlnR*3-NH2 [I-1061]” the figure was less than 50 nM; with “Ac-PL3-Asp-Npg-B5-Asp-Asp-Ala-Ala-Phe-TriAzLys*3-PyrS2-3Thi-BztA-sAla*3-NH2 [I-18]”, less than 50 nM; with “Ac-PL3-Asp-Ile-B5-Asp-3COOHF-Phe-Ala-Phe-Lys*3-PyrS2-3Thi-34MeF-GlnR*3-Ala-NH2 [I-1101]”, less than 50 nM.
Under “Ac-PL3-Asp-Ile-B5-Asp-3COOHF-Aib-Ala-Phe-Lys*3-PyrS2-Phe-3MeF-GlnR*3-NH2 [I-1601]” stands less than 50 nM; under “Ac-S5-Ala-Asp-Npg-B5-Glu-3COOHF-Aib-Ala-Phe-Lys*3-PyrS2-3Thi-BztA-GlnR*3-Ala-NH2 [I-1199]”, 50 to 200 nM.
Under “NPyroR3-Asp-Npg-B4-Asp-3COOHF-Aib-Ala-Phe-Lys*3-PyrS3-3Thi-BztA-GlnR*3-Ala-NH2 [I-1486]” stands 50 to 200 nM; under “Ac-PL3-Asp-Npg-B5-Asp-3COOHF-Aib-Ala-Phe-TriAzLys*3-[RMeIso2]PyrSc704-3Thi-BztA-sAla*3-Ala-NH2 [I-1123]”, 50 to 200 nM.
As for “Ac-S6-Glu-Asp-DipA-B5-Asp-3COOHF-Aib-Ala-Phe-Lys*3-PyrS1-3Thi-34ClF-GlnR*3-Val-NH2 [I-1934]”, the IC50 is less than 50 nM.
Turning to “Ac-PL3-Asp-Cha-B5-Asp-3COOHF-Aib-Ala-Phe-Lys*3-PyrS2-Phe-BztA-GlnR*3-NH2 [I-1648]”, the IC50 was less than 50 nM.
With “Ac-PL3-Asp-Npg-B5-Asp-3COOHF-Aib-Ala-Phe-Lys*3-PyrS2-3Thi-BztA-GlnR*3-Ala-Ala-Arg-Ala-Ala-Ala-Arg-NH2 [I-1157]” the figure was less than 50 nM.
Under “Ac-PL3-Asp-Npg-B5-Asp-3COOHF-Aib-Ala-Phe-Lys*3-PyrS2-HepG-BztA-GlnR*3-Ala-NH2 [I-939]” stands 200 to 750 nM; under “Ac-PL3-Asp-Ile-B5-Asp-3COOHF-GlnMePDA*3-Ala-Phe-Leu-PyrS2-Phe-34ClF-GlnR*3-NH2 [I-1799]”, 50 to 200 nM; under “Ac-PL3-Asp-DipA-B5-Asp-3COOHF-CyLeu-Ala-Phe-Lys*3-PyrS2-2F3MeF-34ClF-GlnR*3-Pro-NH2 [I-1767]”, less than 50 nM.
“Ac-PL3-Asp-Ile-B5-Asp-3COOHF-Aib-Ala-Phe-AsnR3APyr*3-PyrS2-Phe-34ClF-GlnR*3-NH2 [I-1421]”: the IC50 is less than 50 nM.
With “Ac-PL3-Asp-Npg-B5-Asp-3COOHF-Aib-Ala-Phe-TriAzLys*3-[CO][Pro]PyrSa-3Thi-BztA-sAla*3-Ala-NH2 [I-1448]” the figure was 50 to 200 nM; with “Ac-PL3-Asp-Npg-B5-Asp-3COOHF-Ala-Ala-Phe-Lys*3-PyrS2-2F3MeF-34ClF-GlnR*3-Val-NH2 [I-824]”, less than 50 nM.
Under “Ac-PL3-Asp-Npg-B5-Asp-3COOHF-Aib-Ala-Phe-Lys*3-PyrS2-2NH2F-BztA-GlnR*3-Ala-NH2 [I-1735]” stands 200 to 750 nM; under “Ac-PL3-Glu-Npg-B5-Glu-3COOHF-Aib-Ala-Phe-Lys*3-PyrS2-3Thi-34ClF-GlnR*3-NH2 [I-1024]”, more than 1000 nM; under “Ac-PL3-Asp-DipA-B5-Asp-3COOHF-Ala-Ala-Phe-Lys*3-PyrS2-3Thi-34ClF-GlnR*3-[mPEG37]-Lys-NH2 [I-1702]”, less than 50 nM.
With “Ac-PL3-Asp-Cha-B5-Asp-3COOHF-Aib-Ala-Phe-Lys*3-PyrS2-Phe-BztA-GlnR*3-Ala-NH2 [I-1647]” the figure was less than 50 nM; with “Bnc-PL3-Asn-DipA-B5-Asp-3COOHF-CyLeu-Ala-Phe-Lys*3-PyrS2-3Thi-34ClF-GlnR*3-NH2 [I-1728]”, 50 to 200 nM.
Regarding “Ac-S5-Ala-Asn-Npg-B5-Asp-3COOHF-Aib-Ala-Phe-Lys*3-PyrS2-3Thi-BztA-GlnR*3-Ala-NH2 [I-1218]”, the IC50 was in the range of 50 to 200 nM.
Under “Ac-PL3-Asp-Ile-B5-Asp-3COOHF-CyhLeu-Ala-Phe-Lys*3-PyrS2-3Thi-BztA-GlnR*3-Ala-NH2 [I-849]” stands less than 50 nM.
Under “Ac-PL3-Asp-Npg-B5-Asp-3COOHF-Aib-Ala-Phe-TriAzLys*3-PyrSc72SMe3ROMe-3Thi-BztA-sAla*3-Ala-NH2 [I-1120]” stands less than 50 nM.
For “Ac-PL3-Asp-Npg-B5-Asp-3COOHF-Aib-Ala-Phe-Lys*3-PyrS2-[124TriPr]2NH2F-BztA-GlnR*3-Ala-NH2 [I-1738]”, the IC50 was less than 50 nM.
Under “Ac-PL3-Asp-Ile-B5-Asp-3COOHF-Ala-Ala-Phe-sAla*3-PyrS2-Phe-34ClF-TriAzLys*3-NH2 [I-1864]” stands less than 50 nM; under “Ac-Pro-S5-Leu-Asp-Val-B5-Asp-3COOHF-Aib-Ala-Phe-Lys*3-PyrS1-Phe-34ClF-GlnR*3-NH2 [I-1894]”, less than 50 nM.
Under “Ac-Ala-Ser-S5-Ala-Asp-Npg-B5-Asp-3COOHF-Aib-Ala-Phe-Lys*3-PyrS2-3Thi-BztA-GlnR*3-Ala [I-1293]” stands 50 to 200 nM.
Take “Ac-PL3-Asp-Npg-B5-Asp-3COOHF-Aib-Ala-Phe-Lys*3-PyrS2-[BiPh]2NH2F-BztA-GlnR*3-Ala-NH2 [I-1665]”: the IC50 was 50 to 200 nM.
Consider “Ac-S6-Glu-Asp-DipA-B5-Asp-3COOHF-Aib-Ala-Phe-Lys*3-PyrS1-Phe-34ClF-GlnR*3-NH2 [I-1927]”, for which the IC50 was less than 50 nM.
Under “Ac-PL3-Asp-DipA-B5-Asp-3COOHF-Aib-Thr-Phe-Lys*3-PyrS2-3Thi-BztA-GlnR*3-Ala-NH2 [I-1005]” stands less than 50 nM; under “Ac-PL3-Asp-Ile-B5-Asp-3COOHF-Aib-Ala-Phe-Lys*3-PyrS2-Phe-34ClF-GlnR*3-Val-Glu-Leu-NH2 [I-1254]”, less than 50 nM.
On to “Ac-PL3-Asp-Ile-B5-Asp-3COOHF-CyLeu-Ala-Phe-Lys*3-PyrS2-Phe-34ClF-GlnR*3-Val-Glu-Leu-NH2 [I-1260]”, for which the IC50 is less than 50 nM.
For the substance “Ac-PL3-Asp-Npg-B5-Asp-3COOHF-Aib-Ala-4ClF-Lys*3-PyrS2-3Thi-BztA-GlnR*3-Ala-NH2 [I-571]”, the IC50 was less than 50 nM.
With “Ac-PL3-Asp-Npg-B5-Asp-3COOHF-Aib-Ala-Phe-[pXyl]hCys-PyrS2-3Thi-BztA-hCys-Ala-NH2 [I-760]” the figure was 50 to 200 nM; with “Ac-S5-Pro-Asp-Cha-B5-Asp-3COOHF-Aib-Ala-Phe-Lys*3-PyrS2-Phe-34ClF-GlnR*3-NH2 [I-1617]”, less than 50 nM; with “Ac-PL3-Asp-Ile-B5-Asp-3COOHF-Aib-Ala-Phe-Lys*3-PyrS2-Phe-4BrF-GlnR*3-NH2 [I-1606]”, less than 50 nM.
With “Ac-PL3-Asp-Npg-B5-Asp-3COOHF-Aib-Ala-Phe-TriAzLys*3-[CO][Val]PyrSa-3Thi-BztA-sAla*3-Ala-NH2 [I-1440]” the figure was less than 50 nM; with “Ac-PL3-Asp-Npg-B5-Asp-3COOHF-Aib-Ala-Phe-[C3]Cys-PyrS2-3Thi-BztA-Cys-Ser-NH2 [I-1522]”, less than 50 nM.
Under “Ac-PL3-Asp-Npg-B5-Asp-3COOHF-Aib-Ala-4FF-Lys*3-PyrS2-3Thi-BztA-GlnR*3-Ala-NH2 [I-569]” stands less than 50 nM; under “Ac-S5-Ala-Ser-Npg-B5-Asp-3COOHF-Aib-Ala-Phe-Lys*3-PyrS2-3Thi-BztA-GlnR*3-Ala-NH2 [I-1196]”, 200 to 750 nM; under “Ac-PL3-Asp-Ile-B5-Asp-3COOHF-Aib-Ala-Phe-Lys*3-PyrS2-hCha-BztA-GlnR*3-Ala-NH2 [I-1325]”, 50 to 200 nM.
As to “Ac-PL3-Glu-Npg-B5-Asp-3COOHF-Aib-Ala-Phe-Lys*3-PyrS2-3Thi-BztA-GlnR*3-Ala-NH2 [I-967]”, the IC50 lay within 50 to 200 nM.
With “Ac-PL3-Asp-DipA-B5-Asp-3COOHF-dAla-Ala-Phe-Lys*3-PyrS2-3Thi-BztA-GlnR*3-Ala-NH2 [I-1002]” the figure was less than 50 nM.
Take “Ac-PL3-Asp-Npg-B5-Asp-[SaMeSuc]Dap-Aib-Ala-Phe-Lys*3-PyrS2-3Thi-BztA-GlnR*3-Ala-NH2 [I-1435]”: the IC50 was less than 50 nM.
